Binding of CDR-mutated scFvs to a peptide of the spike HR2 region

The measurements come from Li et al. 2023 (doi:10.1038/s41467-023-39022-2) through the FLAb antibody collection.

Antigen: PDVDLGDISGINAS, a 14-residue peptide of the SARS-CoV-2 spike HR2 region.

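These sequences belong to a second round, designed from the earlier measurements on random variants of the parent. Group labels follow the data file (Ctrl: baseline library sampled from a position-specific scoring matrix, with some repeated check sequences; Rand: our label for a block that the file lists under HC and that is probably the random mutants of the ten best first-round binders; En: ensemble of fine-tuned language models; GP: Gaussian process model; GPLM: also part of the Gaussian process libraries; HC: hill climbing; Gen: genetic algorithm; Gibbs: Gibbs sampling; a sequence that several methods proposed may carry one label only). The assay is AlphaSeq: two haploid yeast populations carry antibody and antigen on their surface. Binding brings cells together so that they mate, and sequencing counts the barcode pairs among the diploids. A regression on co-assayed BCL2-family reference pairs converts the normalised counts of each replicate to an apparent Kd. Mating was done six times.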

Parent: Ab-14, a human scFv built as VH, a (GGGGS)3 linker, VL. Only the CDRs of the heavy chain vary.
VH: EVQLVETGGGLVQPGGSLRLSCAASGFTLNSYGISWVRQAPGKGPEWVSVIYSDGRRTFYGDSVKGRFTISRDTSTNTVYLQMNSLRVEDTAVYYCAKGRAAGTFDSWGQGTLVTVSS
VL: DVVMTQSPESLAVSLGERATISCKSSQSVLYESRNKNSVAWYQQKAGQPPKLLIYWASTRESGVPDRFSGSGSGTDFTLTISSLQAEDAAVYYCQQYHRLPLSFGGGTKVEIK

The parent's heavy chain CDRs are GFTLNSYGIS, VIYSDGRRTFYGDSVK, GRAAGTFDS; each variant's own CDRs replace them letter for letter. Each Kd is an estimate from the mating assay, the geometric mean of the replicates in which the pair was seen; lower is stronger. "nd" means that the variant was in the library but no mating with the target was seen in any replicate; the authors take this as a sign of poor binding, and no number exists.

Variant GFDLNEYGIS, VIYADGKRTAYADDVK, GNEAGTFDV [En_Gen] showed 1.7 nM (6 of 6 replicates; controls 0 of 18).
Variant GFDLEEYGIS, VIYADGRRVSYAQSVK, GVYSGTHYV [En_Gibbs] showed nd (0 of 6 replicates; controls 0 of 18).
Variant GFTLNEYGIS, VIYSDGMRTFYGDSVK, GSEAGTFDS [Ctrl] showed 500 pM (6 of 6 replicates; controls 0 of 18).
Variant GFTLNAYGIY, VIRSDGRRTFYDDSVK, GQLAGTFDS [Rand] showed nd (0 of 6 replicates; controls 0 of 18).
Variant GFTLNEYGIS, VIYSDGRRTFYGDSVK, GQAAGTFVT [Ctrl] showed 1.6 nM (6 of 6 replicates; controls 0 of 18).
Variant GFDLNEYGIS, VIYADGVRTAYSDSVK, GNVAGTFDV [En_Gen] showed 1.2 nM (6 of 6 replicates; controls 0 of 18).
Variant GFTLNSYGSS, VIYSDGRRTAYGDSVD, GREAGTFSS [Ctrl] showed nd (0 of 6 replicates; controls 0 of 18).
Variant GFTLNSYGIS, VIYSDGRRTFYSDSVK, GRAGGTSCS [Rand] showed nd (0 of 6 replicates; controls 0 of 18).
Variant GFTLNSYGIS, VMYSDGRRTFYGDSVK, GRAAGTFDS [Ctrl] showed 9.7 nM (1 of 6 replicates; controls 0 of 18).
Variant GFSLNSYGIS, VIYSDGRRTFYGDNVK, GRTAGTFDT [GPLM_Gen] showed 2.1 nM (6 of 6 replicates; controls 0 of 18).
Variant GFDLNEYGIS, VIYADGQRTFYSDSVK, GTVAGTFDS [En_HC] showed 170 pM (6 of 6 replicates; controls 0 of 18).
Variant GFTLNSYGIS, VIYSDGMRTFYSDSVK, GRAAVTFDS [GP_HC] showed nd (0 of 6 replicates; controls 0 of 18).
Variant GFTLNSYGIS, VIYSDGRRTFYSDSVK, GNAAGTFDS [GPLM_Gen] showed 8.6 nM (6 of 6 replicates; controls 0 of 18).
Variant GFDLNEYGIS, VIYADGRRTFYADSVK, GTTAGTFDQ [En_HC] showed 340 pM (6 of 6 replicates; controls 1 of 18).
Variant GFTLNEYGMS, VIYSDGRRTFYGDSVK, GRAADTFDQ [Rand] showed 520 nM (1 of 6 replicates; controls 0 of 18).
Variant GFTLNEYGIS, VIYSDGKRTFYTDSVK, GRFAGTFDS [GPLM_HC] showed 1.9 nM (6 of 6 replicates; controls 3 of 18).
Variant GFELNSYGIS, VIYSDGRRTFYGDSVK, GQVAGTFDL [GP_Gibbs] showed 4.3 nM (6 of 6 replicates; controls 0 of 18).
Variant GFDLDEYGIS, VIYADGMRTAYSDDVK, GQNAGTFDV [En_Gen] showed 110 pM (6 of 6 replicates; controls 0 of 18).
Variant GFDLNEYGIS, VIYADGLRTAYADDVK, GNVAGTFDT [En_Gen] showed 250 pM (6 of 6 replicates; controls 0 of 18).
Variant GENIEEYGIS, VIYADGRRTAYAEPVK, GVSGGTIDT [En_Gibbs] showed 150 nM (1 of 6 replicates; controls 0 of 18).
Variant GFTLDSLGIS, VIYSDGRRTFYGDSVK, GRAAGTALS [Rand] showed nd (0 of 6 replicates; controls 0 of 18).

The remaining entries, values ahead:

68 pM (6 of 6 replicates; controls 0 of 18): GFDLNEYGIS, VIYADGRRTFYADSVK, GSTAGTFDM [En_HC].
2.9 nM (5 of 6 replicates; controls 0 of 18): GFDLDEYGIS, VIYADGMRTYYADSVK, GENAGTFDV [En_Gen].
760 pM (6 of 6 replicates; controls 1 of 18): GFELNEYGIS, VIYSDGRRTFYGDSVK, GRNAGTFDT [GPLM_Gen].
nd (0 of 6 replicates; controls 1 of 18): GFDLNEYGIS, VIYADGRRTAYTDSVK, GVEAGTFDL [En_HC].
420 pM (6 of 6 replicates; controls 0 of 18): GFDLNEYGIS, VIYADGMRKVYADSVK, GNVAGTFDI [En_Gen].
nd (0 of 6 replicates; controls 0 of 18): GFDLDEYGIS, VIYADGKRTRYANNVK, GGVGGIGLS [En_Gibbs].
nd (0 of 6 replicates; controls 0 of 18): GFDLGEYGIS, VIYADGQRRAYIDAVK, GHSSGDYLA [En_Gibbs].
nd (0 of 6 replicates; controls 0 of 18): GFTLNSWGIS, VIYSDGRRTFYGDSVK, GRAAGTFDS [Ctrl].
nd (0 of 6 replicates; controls 0 of 18): GFELNSYGIS, VIYSDGRRTFYGDSVK, GRARGTFDS [Ctrl].
2.2 nM (5 of 6 replicates; controls 0 of 18): GFSLNEYGIS, VIYSDGRRTFYGDSVK, GNAAGTFDS [GPLM_Gen].
12 nM (6 of 6 replicates; controls 0 of 18): GFDLDEYGIS, VIYADGMRTAYTDSVK, GQNAGTFDV [En_Gen].
460 pM (6 of 6 replicates; controls 1 of 18): GFDLNEYGIS, VIYADGVRTAYTDSVK, GENAGTFDL [En_Gen].
nd (0 of 6 replicates; controls 0 of 18): GFDLEEYGIS, VIYADGHRSKYANSVK, GGQVDFAIL [En_Gibbs].
140 nM (1 of 6 replicates; controls 1 of 18): GFDLNEYGIS, VIYADGMRTAYADSVK, GENAGTFVI [En_Gen].
1.0 nM (6 of 6 replicates; controls 0 of 18): GFRLNEYGIS, VIYSDGRRTFYGDSVK, GRTAGTFDS [GPLM_Gen].
47 nM (1 of 6 replicates; controls 0 of 18): GFTLNSYGIS, VIYSDGKRTFYGDSVK, GQEAGTFDS [GP_Gen].
nd (0 of 6 replicates; controls 0 of 18): GFQLDEYGIS, VIYADGLRQYYAQNVK, GYNSFDLND [En_Gibbs].
2.7 nM (6 of 6 replicates; controls 0 of 18): GFDLDEYGIS, VIYADGQRTFYADSVK, GENAGTFDI [En_Gen].
1.3 nM (6 of 6 replicates; controls 1 of 18): GFELESYGIS, VIYSDGKRTFYGDSVK, GRTAGTFDS [GPLM_Gibbs].
290 pM (6 of 6 replicates; controls 0 of 18): GFDLNEYGIS, VIYADGKRTAYADDVK, GNVAGTFDL [En_Gen].
nd (0 of 6 replicates; controls 0 of 18): GFTLLSYGIS, VIYSDGRRTFYGDSVK, GRYAGTFDS [Ctrl].

A sequence measured in both rounds can read differently, since the two assays cover different ranges. The parent sequence was in this pool as ten entries: three were never detected, three once, and four in most replicates, with averages from 2.2 nM to 240 nM. In the paper, a design with two or fewer of six values counts as a poor binder. Empty control strains, which show no peptide, gave a signal in 1% of pairings with all heavy chain designs; the median was 120 nM and 95% of these signals were weaker than 7.0 nM. No background was subtracted. For each scFv, signals with the empty controls are counted beside the result.